The values below are quoted from earlier work in EP0719130B1, “COMPLEX CALCIUM AND FLUORIDE CONTAINING MOUTH RINSES, DENTIFRICES, AND CHEWABLE TABLETS” (AMERICAN DENTAL ASSOCIATION HEALTH FOUNDATION, priority 1993, dated 1995).

The conditions of this series: buffer acid or salt.

As to Lysine salts, the pK is reported as 10.5.
aspartate salts: the pK was 9.8.
With butyrate salts, the pK is given as 4.8.
As to glycine salts, the pK is recorded as 9.8.
